Binding of CDR-mutated scFvs to a peptide of the spike HR2 region

Values reported by Li et al. 2023, doi:10.1038/s41467-023-39022-2 (FLAb copy).

Target: peptide PDVDLGDISGINAS, taken from heptad repeat 2 (HR2) of SARS-CoV-2 spike.

Ab-14 is the parent antibody, in scFv form: VH, then a (GGGGS)3 linker, then VL. The heavy chain is unchanged in all variants.
VH: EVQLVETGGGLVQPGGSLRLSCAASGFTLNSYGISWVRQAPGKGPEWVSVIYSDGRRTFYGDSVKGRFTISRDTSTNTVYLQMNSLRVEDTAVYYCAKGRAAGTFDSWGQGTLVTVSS
VL: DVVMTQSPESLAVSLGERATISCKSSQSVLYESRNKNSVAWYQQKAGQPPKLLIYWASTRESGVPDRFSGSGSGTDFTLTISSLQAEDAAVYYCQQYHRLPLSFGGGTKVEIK

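The starting antibody came from a phage panning campaign against this peptide. These sequences belong to a second round, designed from the earlier measurements on random variants of the parent. Group labels follow the data file (Ctrl: baseline library sampled from a position-specific scoring matrix, with some repeated check sequences; En: ensemble of fine-tuned language models; GP: Gaussian process model; HC: hill climbing; Gen: genetic algorithm; Gibbs: Gibbs sampling; a sequence that several methods proposed may carry one label only). The assay is AlphaSeq: two haploid yeast populations carry antibody and antigen on their surface. Binding brings cells together so that they mate, and sequencing counts the barcode pairs among the diploids. Each replicate has its own calibration line, from reference interactions of the BCL2 family. Each pool was mated in six replicate cultures.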

Each variant is given by its three light chain CDRs, as the data file delimits them; those of the parent are KSSQSVLYESRNKNSVA, WASTRES, QQYHRLPLS.
Variants here have more than six changes.
The read-out is the apparent dissociation constant on a log10 scale (nM): the lower, the stronger.
Replicates are averaged; those with no signal do not enter the mean.
An entry "n.d." has no value in the source: the pair was not observed among the diploids in that replicate. This suggests poor binding but is not conclusive.
Of ten entries with the parent sequence, four were seen in most replicates (averages 0.34 to 2.37), three in one and three in none, so single entries are noisy.

CDR-L1	CDR-L2	CDR-L3	group	replicates, log10 nM	log10 Kd (nM), mean
IFSQSVLMGNLTKNSVA	QASQRFS	QQYHRLPLI	En_HC	1.67 / 2.67 / 2.18 / 2.10 / 2.12 / 1.62	2.06
KASPSEEYESRMKNSVA	NASTRYS	QQYHRLPLS	GP_Gibbs	0.17 / 0.14 / 0.24 / -0.26 / -0.11 / 0.11	0.05
TLYGLSNMMSKNKNSVA	EMTTREK	QQYDRLPLV	En_Gen	0.88 / 1.00 / 0.89 / 2.08 / 1.27 / 1.80	1.32
HMSFLTLQGQRHRNAVA	QMTTREN	QQYDRLPLS	En_Gen	2.31 / 2.40 / 2.85 / 2.05 / 2.42 / 3.04	2.51
KQSQSELYESRNSNSVA	DASQRED	QDYHRLPLS	GP_Gibbs	0.35 / 0.61 / 0.22 / 0.49 / 0.36 / 0.44	0.41
MMSQVTMSGMRHRNNVA	QTSTREP	QQYDRLPLI	En_Gen	1.52 / 0.92 / 1.03 / 0.81 / 1.14 / 0.83	1.04
QIEWYNSTLTEAKNSVA	GVEHRMN	QQYMRLPLE	En_Gibbs	0.79 / 0.49 / 0.26 / 0.87 / 0.05 / 0.55	0.50
QFDMHEPYQGEQNASIA	GTTNRLT	QQYFKLPLS	En_Gibbs	0.63 / 0.89 / 0.46 / 0.60 / 0.56 / 0.66	0.63
KLSQSNLYEDRNLNNVA	NASQRES	QQYHRLPLM	GP_Gibbs	-0.33 / -0.50 / -0.42 / -0.70 / -0.60 / -0.40	-0.49
KVPGENDYESRNKNSVA	EASTRES	QDYHRLPLS	GP_Gibbs	0.72 / 1.12 / 1.06 / 1.67 / 0.86 / 1.13	1.09
KLETSVNGESRNKNAVA	SASQREQ	QQYHRLPLS	GP_Gibbs	-0.11 / -0.06 / -0.19 / -0.29 / -0.24 / -0.04	-0.16
ILSDSVLGLSRNKNSVA	DNSTRES	QQYDRLPLS	En_HC	n.d. / 2.60 / n.d. / n.d. / 3.24 / n.d.	2.92
MIHESYGLMSHKQSSIA	DNSTREE	QQYDRLPLS	En_Gen	n.d. / n.d. / n.d. / n.d. / 2.34 / n.d.	2.34
TLYGLSMSMSKNKNNVA	EMTTREK	QQYDRLPLF	En_Gen	0.54 / 0.62 / 0.26 / 0.20 / 0.46 / 0.59	0.44
IVSQLMLWGMHAKNSIA	EAETRIN	QQYDRLPLF	En_Gen	n.d. / n.d. / n.d. / n.d. / n.d. / n.d.	n.d.
TIDDEMPSHGLKWNSIA	GVATVLQ	QQYHRLPLQ	En_Gibbs	2.30 / 1.76 / 2.46 / 2.16 / 1.84 / 2.34	2.14
KSLESLVGESRNKNSVA	QAHTRES	QSYHRLPLS	Ctrl	0.65 / 0.71 / 0.41 / 0.33 / 0.34 / 0.80	0.54
MLSLNLHDMDANINNVA	EMNKLTA	QDYHRLPLH	En_Gibbs	0.43 / 0.27 / 0.25 / 0.18 / 0.19 / 0.86	0.36
KMSQSGMMESRNQNQVA	EASTRLS	QQYHRLPLS	GP_Gibbs	0.24 / 0.44 / -0.03 / 0.36 / 0.32 / 0.27	0.27
KLSMLWLGESRNHNSVA	SASTRES	QQYHRLPLS	GP_Gibbs	0.38 / 0.19 / 0.12 / 0.01 / 0.18 / 0.28	0.19
MISQLMNYGQFAINSVA	QATIRNS	QQYDRLPLV	En_Gen	n.d. / 0.90 / n.d. / 1.94 / 2.10 / n.d.	1.65
KVSQSVDGQDRNKNAVA	AASTRED	QQYHRLPLS	GP_Gibbs	-0.14 / -0.23 / -0.32 / -0.30 / -0.19 / -0.21	-0.23
KLPMKELQMSENTNNVA	DSEQKMK	QQYSRLPLM	En_Gibbs	0.23 / 0.15 / 0.06 / -0.05 / 0.03 / 0.18	0.10
QLRDAIWADGMNKQSIA	ANEVSKD	QQYNRLPLS	En_Gibbs	2.13 / 1.84 / 1.93 / 1.47 / 1.89 / 1.41	1.78
MVSQLMLWGHMAKNSIA	EAQTRLN	QQYDRLPLF	En_Gen	1.14 / 0.74 / 0.98 / 1.15 / 0.97 / 0.82	0.96
KIEEYTKGDRYFQYSIA	QDDIREK	QQYGQLPLT	En_Gibbs	n.d. / 1.81 / 1.52 / n.d. / n.d. / 2.89	2.07
KITAIMRFEQKNSNNIA	EVTTRSK	QQYYRLPLS	En_Gen	1.04 / 0.21 / 0.45 / 0.40 / 0.47 / 0.74	0.55
KIYELGKGNIKTANNIA	QTDIRML	QSYNRLPLS	En_Gibbs	1.43 / 1.08 / 1.53 / 0.95 / 0.96 / 0.96	1.15
KVSEFMRGLMQRTDSIA	DNVTRSN	QQYDRLPLS	En_Gen	1.55 / 2.12 / 2.81 / 1.68 / 1.99 / 2.04	2.03
KLLQTVMNETRNRNNVA	HMTTRED	QQYHRLPLS	En_HC	0.70 / 0.54 / 0.61 / 0.45 / 0.35 / 0.72	0.56
HILQNMTYYSRNINSVA	HQSTRED	QQYHSLPLS	En_HC	1.40 / 1.61 / 1.16 / 1.34 / 0.96 / 1.25	1.29
SISQLVNFEGKNKNSVA	QMSTRES	QQYDRLPLS	En_HC	0.34 / 0.37 / 0.32 / 0.13 / 0.29 / 0.34	0.30
KLQQSVGYESRLANNVA	NASTRLE	QQYHRLPLS	GP_Gibbs	0.43 / 0.24 / 0.27 / 0.04 / 0.08 / 0.35	0.24
TISQTLMYGMRNRSNVA	EVSERLN	QQYDRLPLM	En_Gen	0.62 / 0.75 / 2.13 / 1.22 / 1.70 / 0.95	1.23
KLPMATMVESVSKNNVA	ELSTRGS	QQYNRLPLS	En_HC	0.36 / -0.21 / 0.02 / -0.16 / -0.13 / 0.10	0.00
HLSDLVKMESRNTNSVA	DNSTRGS	QQYDRLPLS	En_HC	n.d. / n.d. / 1.82 / n.d. / 3.06 / 3.54	2.81
MISQLMNMGTFAINSVA	QAEIRNN	QQYDRLPLI	En_Gen	n.d. / 1.20 / 1.38 / n.d. / n.d. / n.d.	1.29
KSSASVEYQERLINSVA	EASQRES	QQYHRLPLS	GP_Gibbs	0.72 / 1.06 / 0.41 / 0.64 / 0.77 / 0.87	0.74
MMSQVTGQGMRHRNNVA	QTETREP	QQYDRLPLI	En_Gen	1.90 / 1.69 / 2.09 / 0.89 / 1.19 / 1.36	1.52
HISIKLPGNWKMMDSVA	HSELRAE	QQYDRLPLG	En_Gibbs	0.70 / 0.54 / 0.53 / 0.68 / 0.68 / 0.87	0.67
MISNVLNTLTRVGNNVA	DLSERED	QQYFRLPLS	En_Gen	1.57 / 1.39 / 1.10 / 0.93 / 1.16 / 1.49	1.27
ALGDVTRMESNKKNSIA	DMSNRAD	QQYHRLPLS	En_HC	0.04 / 0.23 / -0.18 / 0.09 / -0.08 / 0.20	0.05
NLSGMTAHETVKEKNIA	ERSTREQ	QQYNRLPLS	En_Gen	0.73 / 0.66 / 0.47 / 0.47 / 0.51 / 0.56	0.57
KLYDMAAVTMQNIRNVA	DNSTRES	QQYHRLPLS	En_Gen	1.46 / 0.62 / 0.68 / 0.41 / 0.22 / 0.54	0.65
KQSQAFLQESRNMNSVA	DANTRES	QQYHRLPLS	GP_HC	0.33 / 0.23 / 0.16 / -0.07 / -0.10 / 0.27	0.13
MMSQVHALGQRHRNNVA	QTSTREP	QQYDRLPLI	En_Gen	1.15 / 2.21 / 2.18 / 1.69 / 3.24 / 2.06	2.09
KLSGSMSYEWRNCNNVA	NASQRES	QQYHRLPLS	GP_Gibbs	0.43 / 0.44 / 0.53 / 0.29 / 0.69 / 0.31	0.45
KISMSYRYEQQEKNSIA	EMTTREE	QSYHRLPLS	En_HC	0.55 / 0.01 / 0.14 / 0.34 / 0.64 / 0.91	0.43
MFSQSVMYGSFMRNSVA	QTSTREN	QQYDRLPLS	En_HC	0.62 / 0.61 / 0.43 / 0.08 / 0.55 / 0.54	0.47
KVSQSMPYEERNKNSVA	NASQRMS	QQYHRLPLS	GP_Gibbs	-0.18 / -0.14 / -0.26 / -0.35 / -0.30 / -0.14	-0.23
KIGMTLNQMMHKKNNVA	DLVEREM	QQYFRLPLS	En_Gen	0.91 / -0.05 / 0.19 / 1.83 / 0.25 / -0.03	0.52
KLSEVAHFESRKKNSVA	ENSTRES	QQYDHLPLS	En_HC	1.22 / 1.97 / 1.56 / 1.70 / 1.79 / 1.57	1.64

Picked from the list: the 3 lowest averages where every replicate gave a value.

CDR-L1	CDR-L2	CDR-L3	group	replicates, log10 nM	log10 Kd (nM), mean
KLSQSNLYEDRNLNNVA	NASQRES	QQYHRLPLM	GP_Gibbs	-0.33 / -0.50 / -0.42 / -0.70 / -0.60 / -0.40	-0.49
KVSQSVDGQDRNKNAVA	AASTRED	QQYHRLPLS	GP_Gibbs	-0.14 / -0.23 / -0.32 / -0.30 / -0.19 / -0.21	-0.23
KVSQSMPYEERNKNSVA	NASQRMS	QQYHRLPLS	GP_Gibbs	-0.18 / -0.14 / -0.26 / -0.35 / -0.30 / -0.14	-0.23

The authors averaged sequences with at least three values out of six and counted those with two or fewer as poor binders.
As a blank, each scFv also met three strains without target: over all light chain designs, 4% of these pairings were detected, typically at 2.64 and seldom below 1.59.
Values of this round are not directly comparable with the first-round values of the same sequences.